Laboratory results taken from PMC6983048 (Molecules, 2019).

Target: T1, recombinant human DHFR enzyme (Homo sapiens, UniProt P00374)
T1 construct: purchased
T1 sequence (P00374 1-187): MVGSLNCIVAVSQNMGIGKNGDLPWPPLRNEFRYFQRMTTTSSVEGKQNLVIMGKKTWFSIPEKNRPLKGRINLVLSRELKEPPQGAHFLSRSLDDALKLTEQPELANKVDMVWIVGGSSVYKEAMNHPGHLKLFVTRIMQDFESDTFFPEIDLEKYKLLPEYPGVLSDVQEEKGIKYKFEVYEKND
Assay: Dihydrofolate reductase (DHFR) inhibition assay
Type: biochemical
Settings: pH 7.5, 22 °C, absorbance 340 nm
Method: The procedure for detection of DHFR activity inhibition included preparation of a test mixture in a 1.0 mL quartz cuvette for the spectrophotometric method. Assay buffer—1× for DHFR (pH 7.5) and 1.5 × 10^−3 units of DHFR were added to the appropriate tube and thoroughly mixed. […] After mixing accurately, the reaction was initiated by adding 10 mM dihydrofolic acid (5 µL for each reaction) and a kinetics program was immediately started. The changes in absorbance (ΔOD/ min) were measured by the spectrophotometer Specord 200Plus (Analytikjena, Germany) at 340 nm and 22 °C, and the kinetic program (reading every 15 s for 2.5 min) according to the instructions supplied with the set and recommended by the producer.

COc1cc(CCC(=O)Nc2cnc(N)nc2)cc(OC)c1OC [Compound 3, N-(2-Aminopyrimidin-5-yl)-3-(3,4,5-Trimethoxyphenyl)Propanamide]
IC50: 720 nM
